Earlier results on one compound are cited in patent US5679673A (priority 1994, dated 1997).

SMILES strings stand for the structures.

The test system of the data set is kappa opioid receptors. To be noted: cited from earlier work.

For `CN(C(=O)Cc1ccc(Cl)c(Cl)c1)[C@@H]1CCCC[C@H]1N1CCCC1` (relative stereo), the “kappa opioid receptor ligand” value was “highly selective ligands for kappa opioid receptors”.
